Test results: patent US5677288A, “Use of aminoglycosides to protect against excitotoxic neuron damage” (Cypros Pharmaceutical Corporation, priority 1994, dated 1997)

Tested on: hippocampal slices
Conditions: about 25 mM; in words

[H]/N=C(/N)N[C@H]1[C@H](O)[C@@H](O)[C@H](O[C@@H]2O[C@@H](C)[C@](O)(C=O)[C@H]2O[C@@H]2O[C@@H](CO)[C@H](O)[C@@H](O)[C@@H]2NC)[C@@H](N/C(N)=N\[H])[C@@H]1O [Streptomycin]
protection of hippocampal slices: moderately effective
